Measurements published in patent US9694016B2 (Novartis AG, priority 2013, dated 2017).

Amino acid sequences for entries named in this document (tags omitted).
UniProt P04049, whole entry Y340E/Y341E: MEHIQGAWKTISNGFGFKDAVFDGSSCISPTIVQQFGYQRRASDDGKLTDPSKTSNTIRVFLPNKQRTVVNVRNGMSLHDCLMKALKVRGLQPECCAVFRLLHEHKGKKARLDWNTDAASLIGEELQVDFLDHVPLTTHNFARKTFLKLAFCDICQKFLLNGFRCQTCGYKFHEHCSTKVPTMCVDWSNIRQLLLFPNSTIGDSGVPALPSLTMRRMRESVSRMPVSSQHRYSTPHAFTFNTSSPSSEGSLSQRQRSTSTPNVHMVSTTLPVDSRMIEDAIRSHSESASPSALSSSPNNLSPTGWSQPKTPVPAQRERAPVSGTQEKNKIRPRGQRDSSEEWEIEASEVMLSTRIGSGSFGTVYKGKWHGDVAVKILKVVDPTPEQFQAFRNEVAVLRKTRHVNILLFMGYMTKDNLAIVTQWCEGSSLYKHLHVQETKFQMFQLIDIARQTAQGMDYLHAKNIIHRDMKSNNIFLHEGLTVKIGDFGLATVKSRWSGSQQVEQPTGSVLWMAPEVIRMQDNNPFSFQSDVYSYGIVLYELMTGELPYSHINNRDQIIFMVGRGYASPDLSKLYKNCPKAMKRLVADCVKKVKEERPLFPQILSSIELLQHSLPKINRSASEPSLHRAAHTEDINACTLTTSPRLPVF

Target: C-Raf FL (full-length C-Raf protein, Y340E and Y341E activating mutations) (Homo sapiens (Human), UniProt P04049, Y340E/Y341E)
Type: biochemical
Settings: Table 2; AlphaScreen, 1 hour reaction; read-out: c-Raf FL IC-50

| Compound | IC50 [nM] |
| --- | --- |
| Cc1ccc(NC(=O)c2ccnc(C(C)(C)C#N)c2)cc1-c1cc(C2CCOCC2)nc(N2CCOCC2)c1 [Example 106, 2-(2-cyanopropan-2-yl)-N-(4-methyl-3-(2-morpholino-6-(tetrahydro-2H-pyran-4-yl)pyridin-4-yl)phenyl)isonicotinamide] | 0.4 |
| Cc1ccc(NC(=O)c2cccc(C(F)(F)F)c2)cc1-c1cc(C2CCOCC2)nc(N2CCOCC2)c1 [Example 107, N-(4-methyl-3-(2-morpholino-6-(tetrahydro-2H-pyran-4-yl)pyridin-4-yl)phenyl)-3-(trifluoromethyl)benzamide] | 0.4 |
| O=C(Nc1cccc(C(F)(F)F)c1)c1ccc(CF)c(-c2ccnc(N3CCOCC3)c2)c1 [Example 110, 4-(fluoromethyl)-3-(2-morpholinopyridin-4-yl)-N-(3-(trifluoromethyl)phenyl)benzamide] | 0.3 |
| Cc1ccc(NC(=O)c2cccc(C(F)(F)F)c2)cc1-c1cc(-c2cnn(C)c2)nc(N2CCOCC2)c1 [Example 113, N-(4-methyl-3-(2-(1-methyl-1H-pyrazol-4-yl)-6-morpholinopyridin-4-yl)-3-phenyl)-3-(trifluoromethyl)benzamide] | 0.5 |
| Cc1ccc(NC(=O)c2cccc(C(C)(C)C#N)c2)cc1-c1cc(C2CCOCC2)nc(N2CCOCC2)c1 [Example 114, 3-(2-cyanopropan-2-yl)-N-(4-methyl-3-(2-morpholino-6-(tetrahydro-2H-pyran-4-yl)pyridin-4-yl)phenyl)benzamide] | 0.3 |
| Cc1ccc(NC(=O)c2cccc(C(F)(F)F)c2)cc1-c1cncc(N2CCOCC2)n1 [Example 118, N-(4-methyl-3-(6-morpholinopyrazin-2-yl)phenyl)-3-(trifluoromethyl)benzamide] | 0.2 |
| Cc1ccc(NC(=O)c2cccc(C(F)(F)F)c2)cc1-c1cn(C)c(=O)c(N2CCOCC2)n1 [Example 119, N-(4-methyl-3-(4-methyl-6-morpholino-5-oxo-4,5-dihydropyrazin-2-yl)phenyl)-3-(trifluoromethyl)benzamide] | 0.3 |
| Cc1ccc(NC(=O)c2cccc(C(F)(F)F)c2)cc1-c1c[nH]c(=O)c(N2CCOCC2)n1 [Example 120, N-(4-methyl-3-(6-morpholino-5-oxo-4,5-dihydropyrazin-2-yl)phenyl)-3-(trifluoromethyl)benzamide] | 0.2 |
| COc1ncc(-c2cc(NC(=O)c3ccnc(C(C)(C)C#N)c3)cnc2C)cc1N1CCOCC1 [Example 129, 2-(2-cyanopropan-2-yl)-N-(6′-methoxy-2-methyl-5′-morpholino-[3,3′-bipyridin]-5-yl)isonicotinamide] | 3.6 |
| Cc1ccc(NC(=O)c2cccc(C(F)(F)F)c2)cc1-c1cnc(OC2CCOCC2)c(N2CCOCC2)c1 [Example 132, N-(4-methyl-3-(5-morpholino-6-((tetrahydro-2H-pyran-4-yl)oxy)pyridin-3-yl)phenyl)-3-(trifluoromethyl)benzamide] | 0.5 |
| Cc1ccc(NC(=O)c2cccc(C(F)(F)F)c2)cc1-c1cc(N2CCOCC2)c(=O)n(C(C)C)c1 [Example 135, N-(3-(1-isopropyl-5-morpholino-6-oxo-1,6-dihydropyridin-3-yl)-4-methylphenyl)-3-(trifluoromethyl)benzamide] | 0.3 |
| Cc1ccc(C(=O)Nc2cccc(C(F)(F)F)c2)cc1-c1cc(N2CCOCC2)c(=O)n(C)c1 [Example 137, 4-methyl-3-(1-methyl-5-morpholino-6-oxo-1,6-dihydropyridin-3-yl)-N-(3-(trifluoromethyl)phenyl)benzamide] | 0.7 |
| Cc1ncc(NC(=O)c2cccc(C(F)(F)F)c2)cc1-c1cc(N2CCOCC2)c(=O)n(C)c1 [Example 138, N-(1′,2-dimethyl-5′-morpholino-6′-oxo-1′,6′-dihydro-[3,3′-bipyridin]-5-yl)-3-(trifluoromethyl)benzamide] | 0.8 |
| Cc1ccc(NC(=O)c2cccc(C(F)(F)F)c2)cc1-c1c[nH]c(=O)c(N2CCOCC2)c1 [Example 146, N-(4-methyl-3-(5-morpholino-6-oxo-1,6-dihydropyridin-3-yl)phenyl)-3-(trifluoromethyl)benzamide] | 0.2 |
| Cc1ccc(NC(=O)c2cccc(C(F)(F)F)c2)cc1-c1cc(N2CCOCC2)c(=O)n([C@H](C)C#N)c1 [Example 148, (R)—N-(3-(1-(1-cyanoethyl)-5-morpholino-6-oxo-1,6-dihydropyridin-3-yl)-4-methylphenyl)-3-(trifluoromethyl)benzamide] | 0.3 |
| Cc1ccc(NC(=O)c2cccc(C(F)(F)F)c2)cc1-c1cc(N2CCOCC2)c(=O)n([C@@H](C)C#N)c1 [Example 149, (S)—N-(3-(1-(1-cyanoethyl)-5-morpholino-6-oxo-1,6-dihydropyridin-3-yl)-4-methylphenyl)-3-(trifluoromethyl)benzamide] | 0.3 |
| Cc1ccc(NC(=O)c2cccc(C(F)(F)F)c2)cc1-c1cnc(O[C@@H](C)C#N)c(N2CCOCC2)c1 [Example 152, (S)—N-(3-(6-(1-cyanoethoxy)-5-morpholinopyridin-3-yl)-4-methylphenyl)-3-(trifluoromethyl)benzamide] | 0.5 |

| Compound | IC50 [nM] |
| --- | --- |
| Cc1ccc(NC(=O)c2cccc(C(F)(F)F)c2)cc1-c1cc(N2CCOCC2)n(C)c(=O)c1 [Example 162, N-(4-methyl-3-(1-methyl-6-morpholino-2-oxo-1,2-dihydropyridin-4-yl)phenyl)-3-(trifluoromethyl)benzamide] | 0.2 |
| Cc1ccc(NC(=O)c2cccc(C(F)(F)F)c2)cc1-c1cc(N2CCOCC2)c(=O)n(C)n1 [Example 164, N-(4-methyl-3-(1-methyl-5-morpholino-6-oxo-1,6-dihydropyridazin-3-yl)phenyl)-3-(trifluoromethyl)benzamide] | 0.3 |
| CCn1cc(-c2cc(NC(=O)c3cccc(C(F)(F)F)c3)ccc2C)nc(N2CCOCC2)c1=O [Example 169, N-(3-(4-ethyl-6-morpholino-5-oxo-4,5-dihydropyrazin-2-yl)-4-methylphenyl)-3-(trifluoromethyl)benzamide] | 0.2 |
| Cc1ccc(NC(=O)c2cccc(C(F)(F)F)c2)cc1-c1cn(CC(F)F)c(=O)c(N2CCOCC2)n1 [Example 170, N-(3-(4-(2,2-difluoroethyl)-6-morpholino-5-oxo-4,5-dihydropyrazin-2-yl)-4-methylphenyl)-3-(trifluoromethyl)benzamide] | 0.3 |
| CCN1CCN(c2cc(C(=O)Nc3ccc(C)c(-c4cc(N5CCOCC5)c(=O)n(C)c4)c3)cc(C(F)(F)F)c2)CC1 [Example 174, 3-(4-ethylpiperazin-1-yl)-N-(4-methyl-3-(1-methyl-5-morpholino-6-oxo-1,6-dihydropyridin-3-yl)phenyl)-5-(trifluoromethyl)benzamide] | 1.5 |
| Cc1ccc(NC(=O)c2cncc(N(C)C)c2)cc1-c1cc(N2CCOCC2)c(=O)n(C)c1 [Example 175, 5-(dimethylamino)-N-(4-methyl-3-(1-methyl-5-morpholino-6-oxo-1,6-dihydropyridin-3-yl)phenyl)nicotinamide] | 0.2 |
| Cc1ccc(NC(=O)c2ccnc(C(C)(F)F)c2)cc1-c1cc(N2CCOCC2)c(=O)n(C)c1 [Example 178, 2-(1,1-difluoroethyl)-N-(4-methyl-3-(1-methyl-5-morpholino-6-oxo-1,6-dihydropyridin-3-yl)phenyl)isonicotinamide] | 0.2 |
| Cc1ccc(NC(=O)c2ccnc(C(F)(F)F)c2)cc1-c1cc(N2CCOCC2)c(=O)n(C)c1 [Example 179, N-(4-methyl-3-(1-methyl-5-morpholino-6-oxo-1,6-dihydropyridin-3-yl)phenyl)-2-(trifluoromethyl)isonicotinamide] | 0.2 |
| Cc1ccc(NC(=O)c2ccnc(S(C)(=O)=O)c2)cc1-c1cc(N2CCOCC2)c(=O)n(C)c1 [Example 184, N-(4-methyl-3-(1-methyl-5-morpholino-6-oxo-1,6-dihydropyridin-3-yl)phenyl)-2-(methylsulfonyl)isonicotinamide] | 0.8 |
| Cc1ccc(NC(=O)c2cccc(C(F)F)c2)cc1-c1cc(N2CCOCC2)c(=O)n(C)n1 [Example 190, 3-(difluoromethyl)-N-(4-methyl-3-(1-methyl-5-morpholino-6-oxo-1,6-dihydropyridazin-3-yl)phenyl)benzamide] | 0.3 |
| Cc1ccc(NC(=O)c2ccnc(C(C)(C)C#N)c2)cc1-c1cc(N2CCOCC2)c(=O)n(C)n1 [Example 191, 2-(2-cyanopropan-2-yl)-N-(4-methyl-3-(1-methyl-5-morpholino-6-oxo-1,6-dihydropyridazin-3-yl)phenyl)isonicotinamide] | 1.1 |
| Cc1ccc(NC(=O)c2cccc(C(F)(F)F)c2)cc1-c1csc(N2CCOCC2)n1 [Example 199, N-(4-methyl-3-(2-morpholinothiazol-4-yl)phenyl)-3-(trifluoromethyl)benzamide] | 1.3 |
| Cc1ccc(NC(=O)c2ccnc(C(C)(C)C#N)c2)cc1-c1cnc(OC(F)F)c(N2CCOCC2)c1 [Example 223, 2-(2-cyanopropan-2-yl)-N-(3-(6-(difluoromethoxy)-5-morpholinopyridin-3-yl)-4-methylphenyl)isonicotinamide] | 0.9 |
| Cc1ncc(NC(=O)c2cccc(C(F)(F)F)c2)cc1-c1cnc(OC(F)F)c(N2CCOCC2)c1 [Example 224, N-(6′-(difluoromethoxy)-2-methyl-5′-morpholino-[3,3′-bipyridin]-5-yl)-3-(trifluoromethyl)benzamide] | 0.9 |
| Cc1ccc(NC(=O)c2ccnc(C(C)(C)O)c2)cc1-c1cnc(OC(F)F)c(N2CCOCC2)c1 [Example 226, N-(3-(6-(difluoromethoxy)-5-morpholinopyridin-3-yl)-4-methylphenyl)-2-(2-hydroxypropan-2-yl)isonicotinamide] | 0.7 |
| Cc1ncc(NC(=O)c2cccc(C(F)(F)F)c2)cc1-c1cnc(OCC(F)F)c(N2CCOCC2)c1 [Example 227, N-(6′-(2,2-difluoroethoxy)-2-methyl-5′-morpholino-[3,3′-bipyridin]-5-yl)-3-(trifluoromethyl)benzamide] | 0.4 |
| Cc1ncc(NC(=O)c2ccnc(C(C)(C)C#N)c2)cc1-c1cnc(OCC(F)F)c(N2CCOCC2)c1 [Example 228, 2-(2-cyanopropan-2-yl)-N-(6′-(2,2-difluoroethoxy)-2-methyl-5′-morpholino-[3,3′-bipyridin]-5-yl)isonicotinamide] | 1.1 |
